Reference: publication PMC4042666 (Bioorganic & medicinal chemistry letters, 2013)

Tested on: Huh7 cells

**Q.** How did the “Toxicity toward Huh7 cells, in words” value turn out when `CC(C)(C)[C@H](NC(=O)[C@@H](NC(=O)c1cnccn1)C1CCCCC1)C(=O)N1CC2(Cc3ccccc3C2)C1C(=O)NC(CC1CCC1)C(=O)C(=O)NC1CC1` (stereo partly shown) [Compound 37a] was run?
**A.** toxic
